# Experimental data reported in patent publication US20030022938A1, “N-fatty acid-amino acid conjugates and therapeutic uses” (priority 2001, published 2003).
# Protein sequences, listed by entry. Tags and fused reporters are not part of them.
# UniProt P21554, whole entry: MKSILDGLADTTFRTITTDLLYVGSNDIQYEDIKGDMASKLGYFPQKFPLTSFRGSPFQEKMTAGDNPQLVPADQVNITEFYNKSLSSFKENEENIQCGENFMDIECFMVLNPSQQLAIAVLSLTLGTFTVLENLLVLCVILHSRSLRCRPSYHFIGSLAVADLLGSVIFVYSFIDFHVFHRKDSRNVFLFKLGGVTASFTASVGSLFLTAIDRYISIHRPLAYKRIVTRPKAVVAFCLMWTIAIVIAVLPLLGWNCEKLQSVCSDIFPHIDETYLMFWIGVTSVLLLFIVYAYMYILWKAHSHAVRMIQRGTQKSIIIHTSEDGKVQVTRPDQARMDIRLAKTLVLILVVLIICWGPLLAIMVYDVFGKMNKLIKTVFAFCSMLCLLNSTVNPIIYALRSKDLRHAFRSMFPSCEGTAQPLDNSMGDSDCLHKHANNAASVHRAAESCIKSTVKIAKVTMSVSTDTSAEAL
# UniProt O00519, whole entry: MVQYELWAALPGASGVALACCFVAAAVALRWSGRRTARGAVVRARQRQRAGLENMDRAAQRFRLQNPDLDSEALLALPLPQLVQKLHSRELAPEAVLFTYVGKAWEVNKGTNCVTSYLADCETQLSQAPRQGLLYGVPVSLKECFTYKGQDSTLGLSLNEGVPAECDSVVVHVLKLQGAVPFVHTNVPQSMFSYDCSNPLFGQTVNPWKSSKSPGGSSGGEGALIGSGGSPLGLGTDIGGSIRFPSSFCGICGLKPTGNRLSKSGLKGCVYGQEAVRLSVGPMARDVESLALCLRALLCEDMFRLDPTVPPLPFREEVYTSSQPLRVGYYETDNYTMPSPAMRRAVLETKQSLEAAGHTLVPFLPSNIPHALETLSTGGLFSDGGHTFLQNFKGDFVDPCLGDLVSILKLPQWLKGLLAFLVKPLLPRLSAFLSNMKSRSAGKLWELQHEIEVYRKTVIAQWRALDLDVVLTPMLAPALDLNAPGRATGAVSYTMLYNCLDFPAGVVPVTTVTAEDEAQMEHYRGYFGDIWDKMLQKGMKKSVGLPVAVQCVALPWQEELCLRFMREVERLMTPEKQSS
# What was measured:
# [1] = molecular target: cannabinoid CB 1 receptors (Homo sapiens, UniProt P21554); details: cited from earlier work
# human T-lymphocytes = assay: PHA stimulated T-cell proliferation (BrDU incorporation); type: cell-based; details: 0.1-10 mM, PHA 10 ng/ml, 72 hours
# Experimental: Isolated human T-lymphocytes (5×10^5 ) were cultured in 96 well microtiter plates and treated with NAGly or DMSO for 60 minutes. The cells were then stimulated with PHA (10 ng/ml) and incubated for 72 hours. A control set treated with NAGly/DMSO not stimulated with PHA was incubated in parallel. Cell numbers were determined by measuring BrDU incorporation for 24 hours. The values shown (see “PRO[…]” on the y-axis) are the ratios of the optical density readings from treated and control cells.
# Cell proliferation in vitro was measured by incorporation of 5-bromo-2′-deoxyuridine (BrDU) instead of thymidine into the DNA of proliferating cells. In these experiments, isolated T-lymphocytes were treated with NAGly or vehicle (DMSO) for 60 minutes in RPMI containing 2% autologous serum. Cells (2×10^5 per well) were then cultured in 96 well, flat bottomed microtiter plates and stimulated with PHA (10 ng/ml) or not stimulated. Cultures were maintained for 72 hours in a standard cell incubator at 37° C. […] Anti-BrDU-peroxidase was added and the immune complex was detected by substrate (tetramethylbenzidine) reaction. The reaction was stopped with […] sulfuric acid (1N) and the product was quantified by measuring the absorbance at 492 nm with reference at 650 nm. Absorbance correlated directly to the amount of DNA synthesis, and, thereby, to the number of proliferating cells in each culture.
# FAAH = FAAH (Homo sapiens, UniProt O00519); assay: Hydrolysis by FAAH; type: in vitro ADME
# [2] = test system: formalin-induced pain behavior; assay: Formalin test for pain reduction; details: drug-treated rats
# Experimental: Rats received intraplantar injections of formalin in the hindpaw, and pain behavior consisting of lifting and licking of the injected paw was observed. Drug or co-vehicle was coinjected with the formalin solution (4.5% formalin in 10% DMSO, 100μl, s.c., ipl.).
# [3] = Blood levels of NAGly in rats after oral administration; type: in vivo; details: 10 mg/kg oral
# Stability in vivo = details: compared with anandamide
substance,measurement,setting,value
N-arachidonyl glycine [NAGly],affinity for cannabinoid CB 1 receptors,[1],lack affinity
same,proliferation of PHA stimulated T-cells (proliferation index),human T-lymphocytes,only inhibitory; also recorded: inhibitory in a dose-related fashion
same,hydrolysis by FAAH,FAAH,only slowly hydrolyzed by FAAH
same,behavioral abnormality,[2],No behavioral abnormality was observed
same,blood levels of NAGly,[3],60 to 80 nM
same,stability in vivo,Stability in vivo,greater stability than anandamide in vivo

# Entries after “also recorded” stand apart in the source; their conditions may differ.
